Test results published in patent US20160325113A1, “Phototherapy Devices and Methods Comprising Optionally Substituted Quinquiesphenyl Compounds” (NITTO DENKO CORPORATION, priority 2012, published 2016).

Test system: CHO-K1 (Chinese Hamster Ovarian Cancer, ATCC, CRL-2243) cell line
Assay: Ex-vivo efficacy study: ALA photodynamic treatment with OLED red light, MTT cell viability

## NCC(=O)CCC(=O)O [ALA, 5-aminolevulinic acid]
ALA fixed at 1 mM, light output 10 mW/cm^2, light dose above about 30 J/cm^2 (30 to 60 J/cm^2)
  cells destroyed (MTT, FIG. 13): ~90%
Reference-2: 1 mM ALA, exposed to outdoor light, no OLED irradiation
  cell viability of reference sample (FIG. 13): remained alive
